Data taken from PMC9293909 (Nature Communications, 2022).

Chains of the proteins cited; added tags and fusions are not shown.
UniProt P28647, whole entry: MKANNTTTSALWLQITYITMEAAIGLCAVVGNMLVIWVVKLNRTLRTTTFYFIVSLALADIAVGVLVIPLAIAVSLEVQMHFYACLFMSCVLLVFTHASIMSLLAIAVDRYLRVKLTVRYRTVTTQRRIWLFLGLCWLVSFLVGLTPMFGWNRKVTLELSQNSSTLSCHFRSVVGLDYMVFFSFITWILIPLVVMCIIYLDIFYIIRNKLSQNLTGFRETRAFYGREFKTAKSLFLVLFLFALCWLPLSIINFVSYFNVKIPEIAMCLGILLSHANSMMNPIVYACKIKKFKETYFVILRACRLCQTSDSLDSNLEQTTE

Target: T1, rA3R (Rattus norvegicus, UniProt P28647)
T1 construct: expressed in transfected cells; host or cells: Flp-In-CHO (ThermoFisher R75807), pcDNA5/FRT
Assay: cAMP inhibition at rA3R (Flp-In-CHO)
Format: cell-based
Settings: half-maximal response, read-out: pIC50 rA3R (converted)

**Q.** With `OC[C@H]1O[C@@H](n2cnc3c(NC4CCCC4)ncnc32)[C@H](O)[C@@H]1O` [CPA, N^6-Cyclopentyladenosine] as the compound, how does the IC50 read?
**A.** 38.9 nM
